US20200340991A1

Target: chimeric TSH receptor (chimeric MC4 receptor) expressed on CHO-MC4 cells (human/rat chimera) (UniProt P16473)
Assay: cell-based or functional assay

In the case of “bovine thyroid stimulating hormone (from UniProt P01217 25-120; P01223 21-132) (ligand)”, the luciferase induction by bTSH relative to the wt TSHR cell line is reported as 8 fold.
